Results reported in PubChem BioAssay AID1259423 (Fisher Drug Discovery Resource Center, 2018).
Values joined by “and” are separate entries in the source; they are usually repeats but may differ in a detail not shown here. Equal values may be shown once. The entries are a selection whose mix differs from that of the whole data set. Active and inactive are the calls of the source. No stated cut-off is given here; in the data, active means activation above about 40%; inactive means the rest, inconclusive results apart.

What follows are compounds tested on Aedes aegypti neuropeptide Y-like receptor 7 (NPYLR7) (assay: agonists of mosquito NPYLR7 receptor, primary screen, cell-based, Aedes aegypti, calcium fluorescence, mosquito biting behavior (AID 1259423;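 further: 0% = vehicle and 100% = reference agonist at the receptor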)). Conditions: HEK293T NPYLR7/Galpha15, GCaMP6s calcium fluorescence; at 10 µM; hits give high values.

Compound | activation
COc1cccc(N(C(=O)c2cccc(Cl)c2)C2CCNCC2)c1 | inactive: 14.7%
O=C(NCC1(N2CCCCC2)CCCCC1)c1cn2ccccc2n1 | inactive: 7.06%
CC(C)(C)OC(=O)N1CCC(Nc2ccccc2)(C(=O)N2CCC2)CC1 | inactive: 0.516%
CN(C)C1(CNC(=O)c2ccccn2)CCCCC1 | inactive: 12.5%
O=C(NCC1(N2CCOCC2)CCCCC1)c1ccc(Br)o1 | inactive: 5.35%
Cc1ccc(C(C)CCN(CCCl)CCCl)cc1 (stereo unspecified) | inactive: -2.8%
O=C(NCC1(N2CCCCC2)CCCCC1)c1cccs1 | inactive: -1.24%
Cc1nc([N+](=O)[O-])cn1CCC(=O)N[C@@H]1CCCC[C@H]1N1CCOCC1 | inactive: 12.9%
c1ccc(NC2CCN(CCc3ccncc3)CC2)cc1 | inactive: 12.6%
CCOC(OCC)P(=S)(OCC)OCC | inactive: -8.83%
O=C(N[C@@H]1CCCC[C@H]1N1CCOCC1)c1cccc(Br)c1 | inactive: -11.3%
Cc1cc(=O)[nH]c(C(C)N2CCC(Nc3ccccc3)CC2)n1 (stereo unspecified) | inactive: 7.39% and inactive: 6.37%
O=C(NCC1(N2CCOCC2)CCCCC1)c1ccc2c3c(cccc13)CC2 | inactive: -0.0673%
COCC(=O)N(c1cccc(C)c1)C1CCNCC1 | inactive: 13.5%
O=C(NCC1(N2CCCCC2)CCCCC1)c1cc2c(s1)CCC2 | inactive: 20.7%
COc1cc(NC2CCNCC2)cc(OC)c1 | inactive: -2.6%
O=C(NCC1(N2CCCCC2)CCCCC1)c1ccc2c(c1)OCO2 | inactive: 2.05%
O=c1[nH]c2ccccc2n1C1CCN(Cc2ccccn2)CC1 | inactive: -5.3%
Cc1cccc(N(C(=O)c2ccco2)C2CCN(C(=O)OC(C)(C)C)CC2)c1 | inactive: 1.62%
N#Cc1ccc(C(=O)CBr)cc1 | inactive: 13%
COc1cccc(NC2CCN(Cc3ccncc3)CC2)c1 | inactive: 3.69%
O=C(NCC1(N2CCOCC2)CCCCC1)c1ccc(OCC(F)(F)F)nc1 | inactive: -13.7%
O=c1[nH]c2ccccc2n1C1CCN(Cc2cccc(F)c2F)CC1 | inactive: 0.256%
COc1ccc(N(C(=O)CC(C)C)C2CCNCC2)cc1 | inactive: 12.3%
CCc1ccc(N(C(=O)c2cccc(C)c2)C2CCNCC2)cc1 | inactive: 17%
Cc1ccc(N(C(=O)c2ccco2)C2CCNCC2)cc1F | inactive: 18%
